This data set deals with Huh7 cells.

For the molecule `CC(C)(C)[C@H](NC(=O)[C@@H](NC(=O)c1cnccn1)C1CCCCC1)C(=O)N1CC2(Cc3ccccc3C2)C1C(=O)NC(CC1CCC1)C(=O)C(=O)NC1CC1` (stereo partly shown) [Compound 37a], the “Toxicity toward Huh7 cells, in words” value is recorded as “toxic”.
